Measured values published in paper PMC3914206.

Sequences of proteins named here, by UniProt entry; tags and fusion partners are left off. A change or cut given only in a name is not applied to a line headed by its entry. Residues count along the entry.
UniProt O96013: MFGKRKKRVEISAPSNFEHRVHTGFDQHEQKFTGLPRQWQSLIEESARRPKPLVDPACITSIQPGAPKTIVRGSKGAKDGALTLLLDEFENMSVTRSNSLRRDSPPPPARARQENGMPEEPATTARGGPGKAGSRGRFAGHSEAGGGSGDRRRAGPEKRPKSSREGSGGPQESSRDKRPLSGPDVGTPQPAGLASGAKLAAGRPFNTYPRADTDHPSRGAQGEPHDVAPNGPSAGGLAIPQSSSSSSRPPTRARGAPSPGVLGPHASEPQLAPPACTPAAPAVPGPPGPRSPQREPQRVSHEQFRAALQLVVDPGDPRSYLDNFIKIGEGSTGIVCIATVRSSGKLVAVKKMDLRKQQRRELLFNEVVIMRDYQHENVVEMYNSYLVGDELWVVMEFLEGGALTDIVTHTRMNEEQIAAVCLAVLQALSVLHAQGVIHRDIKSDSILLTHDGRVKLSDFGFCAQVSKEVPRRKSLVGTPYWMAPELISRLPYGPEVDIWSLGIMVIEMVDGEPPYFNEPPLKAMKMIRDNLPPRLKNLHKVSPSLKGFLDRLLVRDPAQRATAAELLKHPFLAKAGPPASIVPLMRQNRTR
UniProt P30530, 26-894: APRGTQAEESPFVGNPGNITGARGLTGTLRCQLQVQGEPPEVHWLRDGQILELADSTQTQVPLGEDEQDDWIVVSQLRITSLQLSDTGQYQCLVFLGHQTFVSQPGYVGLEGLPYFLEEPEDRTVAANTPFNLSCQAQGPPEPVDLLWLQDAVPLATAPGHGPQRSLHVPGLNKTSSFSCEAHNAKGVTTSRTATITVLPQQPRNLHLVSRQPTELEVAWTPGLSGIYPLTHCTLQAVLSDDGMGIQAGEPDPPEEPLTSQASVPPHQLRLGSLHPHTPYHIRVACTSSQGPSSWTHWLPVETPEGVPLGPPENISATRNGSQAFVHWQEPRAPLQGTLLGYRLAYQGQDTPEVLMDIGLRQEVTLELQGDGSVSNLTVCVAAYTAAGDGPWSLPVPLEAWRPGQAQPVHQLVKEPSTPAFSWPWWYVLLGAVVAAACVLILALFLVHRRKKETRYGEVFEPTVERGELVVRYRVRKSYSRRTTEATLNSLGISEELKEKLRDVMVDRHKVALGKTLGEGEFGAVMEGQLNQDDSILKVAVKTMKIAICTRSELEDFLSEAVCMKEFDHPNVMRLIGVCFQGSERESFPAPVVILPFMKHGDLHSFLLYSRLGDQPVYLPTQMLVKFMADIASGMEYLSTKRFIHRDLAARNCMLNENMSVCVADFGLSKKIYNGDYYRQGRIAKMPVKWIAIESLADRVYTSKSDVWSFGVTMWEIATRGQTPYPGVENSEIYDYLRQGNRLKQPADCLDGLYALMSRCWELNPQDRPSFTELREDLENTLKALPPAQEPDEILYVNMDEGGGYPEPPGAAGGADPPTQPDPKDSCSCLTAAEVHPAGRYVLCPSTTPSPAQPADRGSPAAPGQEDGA
UniProt P36896, 24-505: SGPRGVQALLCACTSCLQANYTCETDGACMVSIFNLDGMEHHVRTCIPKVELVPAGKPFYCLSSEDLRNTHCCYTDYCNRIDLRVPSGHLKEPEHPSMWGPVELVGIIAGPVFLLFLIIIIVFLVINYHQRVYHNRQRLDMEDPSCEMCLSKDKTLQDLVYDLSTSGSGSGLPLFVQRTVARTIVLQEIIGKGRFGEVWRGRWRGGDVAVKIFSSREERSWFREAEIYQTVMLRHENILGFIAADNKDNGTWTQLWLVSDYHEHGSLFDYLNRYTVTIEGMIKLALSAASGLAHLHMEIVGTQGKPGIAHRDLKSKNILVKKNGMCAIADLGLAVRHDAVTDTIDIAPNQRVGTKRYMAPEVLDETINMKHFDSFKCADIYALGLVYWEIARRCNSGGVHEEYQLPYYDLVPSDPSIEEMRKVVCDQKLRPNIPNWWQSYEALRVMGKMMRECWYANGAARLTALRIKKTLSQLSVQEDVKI
UniProt P42336, whole entry: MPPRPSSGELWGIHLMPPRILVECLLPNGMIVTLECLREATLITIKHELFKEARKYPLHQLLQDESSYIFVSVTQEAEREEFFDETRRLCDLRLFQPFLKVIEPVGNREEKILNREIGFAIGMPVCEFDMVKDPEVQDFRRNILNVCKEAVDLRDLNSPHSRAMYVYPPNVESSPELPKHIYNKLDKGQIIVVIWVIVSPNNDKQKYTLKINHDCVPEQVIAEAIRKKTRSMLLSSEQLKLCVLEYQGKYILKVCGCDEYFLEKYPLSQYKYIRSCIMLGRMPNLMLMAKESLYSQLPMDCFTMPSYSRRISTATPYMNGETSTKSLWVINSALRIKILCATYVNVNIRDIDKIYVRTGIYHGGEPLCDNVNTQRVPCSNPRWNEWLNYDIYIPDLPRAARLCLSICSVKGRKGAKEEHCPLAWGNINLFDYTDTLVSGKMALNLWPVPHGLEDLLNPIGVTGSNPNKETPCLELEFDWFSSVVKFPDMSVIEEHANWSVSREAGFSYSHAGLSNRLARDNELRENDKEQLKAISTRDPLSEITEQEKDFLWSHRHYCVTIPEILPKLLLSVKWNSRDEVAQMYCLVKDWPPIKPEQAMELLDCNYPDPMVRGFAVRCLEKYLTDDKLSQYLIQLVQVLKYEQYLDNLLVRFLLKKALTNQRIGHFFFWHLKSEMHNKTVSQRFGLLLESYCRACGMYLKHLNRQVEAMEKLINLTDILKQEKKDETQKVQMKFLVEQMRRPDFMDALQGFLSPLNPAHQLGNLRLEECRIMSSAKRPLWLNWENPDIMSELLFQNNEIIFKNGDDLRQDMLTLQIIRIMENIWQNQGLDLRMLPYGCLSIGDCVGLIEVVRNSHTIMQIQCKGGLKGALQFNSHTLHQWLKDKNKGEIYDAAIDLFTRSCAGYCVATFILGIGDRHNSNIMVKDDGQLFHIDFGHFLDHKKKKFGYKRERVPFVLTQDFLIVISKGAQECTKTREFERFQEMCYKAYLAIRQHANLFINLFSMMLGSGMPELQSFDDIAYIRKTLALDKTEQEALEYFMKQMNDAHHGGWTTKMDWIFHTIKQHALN
UniProt Q9NWZ3, whole entry: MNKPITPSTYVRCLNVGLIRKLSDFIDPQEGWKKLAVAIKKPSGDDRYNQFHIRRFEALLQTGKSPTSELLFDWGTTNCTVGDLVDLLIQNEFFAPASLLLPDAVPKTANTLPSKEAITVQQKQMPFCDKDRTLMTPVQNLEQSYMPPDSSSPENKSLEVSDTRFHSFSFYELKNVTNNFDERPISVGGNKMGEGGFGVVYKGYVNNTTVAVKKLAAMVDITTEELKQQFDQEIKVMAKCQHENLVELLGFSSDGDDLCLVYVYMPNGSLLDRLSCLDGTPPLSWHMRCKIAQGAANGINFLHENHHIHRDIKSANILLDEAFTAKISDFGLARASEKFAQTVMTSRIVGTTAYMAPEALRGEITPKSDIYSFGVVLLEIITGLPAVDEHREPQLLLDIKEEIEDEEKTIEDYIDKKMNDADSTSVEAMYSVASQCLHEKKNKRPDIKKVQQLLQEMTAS
UniProt Q9UBF8: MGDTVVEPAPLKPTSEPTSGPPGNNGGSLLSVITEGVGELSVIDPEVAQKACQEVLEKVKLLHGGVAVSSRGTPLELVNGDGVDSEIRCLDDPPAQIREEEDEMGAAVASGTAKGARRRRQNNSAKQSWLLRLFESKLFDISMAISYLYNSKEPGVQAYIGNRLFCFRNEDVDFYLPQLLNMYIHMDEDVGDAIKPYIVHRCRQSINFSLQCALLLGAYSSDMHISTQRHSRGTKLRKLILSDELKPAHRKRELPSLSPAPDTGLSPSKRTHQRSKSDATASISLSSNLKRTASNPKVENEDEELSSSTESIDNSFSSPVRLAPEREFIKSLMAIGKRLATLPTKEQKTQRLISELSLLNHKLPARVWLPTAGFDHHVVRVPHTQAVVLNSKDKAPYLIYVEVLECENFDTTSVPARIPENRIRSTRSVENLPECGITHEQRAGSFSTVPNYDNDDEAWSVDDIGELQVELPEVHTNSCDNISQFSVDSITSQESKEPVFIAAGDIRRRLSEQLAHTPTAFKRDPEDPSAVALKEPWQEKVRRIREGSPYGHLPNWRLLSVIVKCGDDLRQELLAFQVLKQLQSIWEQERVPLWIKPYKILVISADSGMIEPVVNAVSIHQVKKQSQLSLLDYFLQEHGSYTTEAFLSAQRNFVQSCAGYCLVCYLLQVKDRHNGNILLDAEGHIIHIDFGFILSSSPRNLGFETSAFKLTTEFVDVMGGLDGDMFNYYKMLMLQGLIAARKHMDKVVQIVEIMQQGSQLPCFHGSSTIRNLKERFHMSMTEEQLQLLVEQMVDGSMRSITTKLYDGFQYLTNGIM
UniProt Q9Y6M4: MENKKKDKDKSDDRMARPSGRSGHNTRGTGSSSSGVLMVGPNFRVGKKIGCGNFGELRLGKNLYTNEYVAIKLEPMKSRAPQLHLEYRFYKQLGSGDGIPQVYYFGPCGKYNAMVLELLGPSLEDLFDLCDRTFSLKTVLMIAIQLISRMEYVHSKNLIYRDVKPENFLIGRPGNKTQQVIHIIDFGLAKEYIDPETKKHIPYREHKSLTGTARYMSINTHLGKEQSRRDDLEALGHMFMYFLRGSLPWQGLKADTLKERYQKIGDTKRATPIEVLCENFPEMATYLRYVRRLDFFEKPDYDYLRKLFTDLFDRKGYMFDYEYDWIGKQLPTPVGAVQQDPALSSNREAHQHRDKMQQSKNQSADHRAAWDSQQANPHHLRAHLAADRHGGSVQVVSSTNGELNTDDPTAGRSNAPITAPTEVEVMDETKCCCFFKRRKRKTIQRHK
UniProt Q9Y6R4: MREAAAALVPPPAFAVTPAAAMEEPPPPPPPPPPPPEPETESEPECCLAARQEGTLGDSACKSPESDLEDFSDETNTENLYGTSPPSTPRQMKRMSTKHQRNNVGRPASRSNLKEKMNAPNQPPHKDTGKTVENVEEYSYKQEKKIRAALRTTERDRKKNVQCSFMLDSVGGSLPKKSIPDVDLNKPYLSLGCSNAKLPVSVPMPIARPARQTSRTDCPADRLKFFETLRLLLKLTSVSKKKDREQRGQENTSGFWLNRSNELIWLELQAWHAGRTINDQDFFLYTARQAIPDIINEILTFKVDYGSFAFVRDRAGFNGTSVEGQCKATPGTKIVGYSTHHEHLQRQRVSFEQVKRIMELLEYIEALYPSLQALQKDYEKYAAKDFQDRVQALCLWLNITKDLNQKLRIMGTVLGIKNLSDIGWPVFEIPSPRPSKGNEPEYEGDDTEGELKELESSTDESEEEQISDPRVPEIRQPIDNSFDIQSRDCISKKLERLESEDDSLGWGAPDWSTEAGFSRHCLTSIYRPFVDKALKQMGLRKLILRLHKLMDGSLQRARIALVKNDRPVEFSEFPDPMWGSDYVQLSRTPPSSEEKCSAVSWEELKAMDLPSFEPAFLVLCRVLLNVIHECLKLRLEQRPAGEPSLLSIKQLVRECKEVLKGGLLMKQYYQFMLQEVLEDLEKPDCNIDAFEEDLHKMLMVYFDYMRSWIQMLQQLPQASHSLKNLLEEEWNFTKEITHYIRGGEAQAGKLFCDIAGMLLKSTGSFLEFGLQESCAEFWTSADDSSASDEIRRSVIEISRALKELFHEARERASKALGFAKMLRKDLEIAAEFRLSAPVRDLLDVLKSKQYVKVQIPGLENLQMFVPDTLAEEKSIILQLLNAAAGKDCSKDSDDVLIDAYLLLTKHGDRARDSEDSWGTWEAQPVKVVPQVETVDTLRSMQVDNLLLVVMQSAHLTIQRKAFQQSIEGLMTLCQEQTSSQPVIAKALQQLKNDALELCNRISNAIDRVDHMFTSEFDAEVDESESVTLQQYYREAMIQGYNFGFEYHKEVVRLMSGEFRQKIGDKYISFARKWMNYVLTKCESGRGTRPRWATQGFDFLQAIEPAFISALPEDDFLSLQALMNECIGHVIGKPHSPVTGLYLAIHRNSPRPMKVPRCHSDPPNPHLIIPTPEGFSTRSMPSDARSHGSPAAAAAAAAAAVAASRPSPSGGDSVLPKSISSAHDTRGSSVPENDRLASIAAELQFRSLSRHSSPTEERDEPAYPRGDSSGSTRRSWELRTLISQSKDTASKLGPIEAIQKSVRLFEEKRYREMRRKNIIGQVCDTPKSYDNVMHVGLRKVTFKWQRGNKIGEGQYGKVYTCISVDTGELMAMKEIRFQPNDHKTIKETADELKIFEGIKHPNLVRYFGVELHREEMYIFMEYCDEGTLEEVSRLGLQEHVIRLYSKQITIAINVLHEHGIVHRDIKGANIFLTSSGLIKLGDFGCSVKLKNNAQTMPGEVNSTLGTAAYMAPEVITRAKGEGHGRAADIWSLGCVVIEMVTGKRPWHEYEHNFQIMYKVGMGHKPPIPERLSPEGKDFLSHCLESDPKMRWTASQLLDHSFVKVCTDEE

Columns and labels:
Assay type in all cases: binding
Conditions in all cases: Compound Concentration 10 µM
panel of 442 kinases [1] = biological target: T1, panel of 442 kinases (Homo sapiens, UniProt O00329)
T1 construct: purchased KINOMEscan
Text: (§1) We assessed the selectivity of members of this scaffold using the KINOMEscan methodology across a near comprehensive panel of 442 kinases [[18,27]].

panel of 442 kinases [2] = biological target: T2, panel of 442 kinases (Homo sapiens, UniProt O15264)
T2 construct: purchased KINOMEscan
Text: as §1

panel of 442 kinases [3] = biological target: T3, panel of 442 kinases (Homo sapiens, UniProt O60674)
T3 construct: purchased KINOMEscan
Text: as §1

panel of 442 kinases [4] = biological target: T4, panel of 442 kinases (Homo sapiens, UniProt O75582)
T4 construct: purchased KINOMEscan
Text: as §1

panel of 442 kinases [5] = biological target: T5, panel of 442 kinases (Homo sapiens, UniProt O76039)
T5 construct: purchased KINOMEscan
Text: as §1

panel of 442 kinases [6] = biological target: T6, panel of 442 kinases (Homo sapiens, UniProt O96013)
T6 construct: purchased KINOMEscan
Text: as §1

panel of 442 kinases [7] = biological target: T7, panel of 442 kinases (Homo sapiens, UniProt P07332)
T7 construct: purchased KINOMEscan
Text: as §1

panel of 442 kinases [8] = biological target: T8, panel of 442 kinases (Homo sapiens, UniProt P07949)
T8 construct: purchased KINOMEscan
Text: as §1

panel of 442 kinases [9] = biological target: T9, panel of 442 kinases (Homo sapiens, UniProt P07949, V804M)
T9 construct: purchased KINOMEscan
Text: as §1

panel of 442 kinases [10] = biological target: T10, panel of 442 kinases (Homo sapiens, UniProt P10721, A829P)
T10 construct: purchased KINOMEscan
Text: as §1

panel of 442 kinases [11] = biological target: T11, panel of 442 kinases (Homo sapiens, UniProt P11802)
T11 construct: purchased KINOMEscan
Text: as §1

panel of 442 kinases [12] = biological target: T12, panel of 442 kinases (Homo sapiens, UniProt P30530)
T12 construct: purchased KINOMEscan
Text: as §1

panel of 442 kinases [13] = biological target: T13, panel of 442 kinases (Homo sapiens, UniProt P36896)
T13 construct: purchased KINOMEscan
Text: as §1

panel of 442 kinases [14] = biological target: T14, panel of 442 kinases (Homo sapiens, UniProt P37023)
T14 construct: purchased KINOMEscan
Text: as §1

panel of 442 kinases [15] = biological target: T15, panel of 442 kinases (Homo sapiens, UniProt P41743)
T15 construct: purchased KINOMEscan
Text: as §1

panel of 442 kinases [16] = biological target: T16, panel of 442 kinases (Homo sapiens, UniProt P42336)
T16 construct: purchased KINOMEscan
Text: as §1

panel of 442 kinases [17] = biological target: T17, panel of 442 kinases (Homo sapiens, UniProt P45985)
T17 construct: purchased KINOMEscan
Text: as §1

panel of 442 kinases [18] = biological target: T18, panel of 442 kinases (Homo sapiens, UniProt P51812)
T18 construct: purchased KINOMEscan
Text: as §1

panel of 442 kinases [19] = biological target: T19, panel of 442 kinases (Homo sapiens, UniProt P51956)
T19 construct: purchased KINOMEscan
Text: as §1

panel of 442 kinases [20] = biological target: T20, panel of 442 kinases (Homo sapiens, UniProt P78356)
T20 construct: purchased KINOMEscan
Text: as §1

panel of 442 kinases [21] = biological target: T21, panel of 442 kinases (Homo sapiens, UniProt Q04759)
T21 construct: purchased KINOMEscan
Text: as §1

panel of 442 kinases [22] = biological target: T22, panel of 442 kinases (Homo sapiens, UniProt Q12851)
T22 construct: purchased KINOMEscan
Text: as §1

panel of 442 kinases [23] = biological target: T23, panel of 442 kinases (Homo sapiens, UniProt Q13131)
T23 construct: purchased KINOMEscan
Text: as §1

panel of 442 kinases [24] = biological target: T24, panel of 442 kinases (Homo sapiens, UniProt Q13188)
T24 construct: purchased KINOMEscan
Text: as §1

panel of 442 kinases [25] = biological target: T25, panel of 442 kinases (Homo sapiens, UniProt Q13976)
T25 construct: purchased KINOMEscan
Text: as §1

panel of 442 kinases [26] = biological target: T26, panel of 442 kinases (Homo sapiens, UniProt Q14164)
T26 construct: purchased KINOMEscan
Text: as §1

panel of 442 kinases [27] = biological target: T27, panel of 442 kinases (Homo sapiens, UniProt Q16659)
T27 construct: purchased KINOMEscan
Text: as §1

panel of 442 kinases [28] = biological target: T28, panel of 442 kinases (Homo sapiens, UniProt Q32MK0)
T28 construct: purchased KINOMEscan
Text: as §1

panel of 442 kinases [29] = biological target: T29, panel of 442 kinases (Homo sapiens, UniProt Q8NFD2)
T29 construct: purchased KINOMEscan
Text: as §1

panel of 442 kinases [30] = biological target: T30, panel of 442 kinases (Homo sapiens, UniProt Q8NG66)
T30 construct: purchased KINOMEscan
Text: as §1

panel of 442 kinases [31] = biological target: T31, panel of 442 kinases (Homo sapiens, UniProt Q8TDX7)
T31 construct: purchased KINOMEscan
Text: as §1

panel of 442 kinases [32] = biological target: T32, panel of 442 kinases (Homo sapiens, UniProt Q96Q40)
T32 construct: purchased KINOMEscan
Text: as §1

panel of 442 kinases [33] = biological target: T33, panel of 442 kinases (Homo sapiens, UniProt Q9C098)
T33 construct: purchased KINOMEscan
Text: as §1

panel of 442 kinases [34] = biological target: T34, panel of 442 kinases (Homo sapiens, UniProt Q9NWZ3)
T34 construct: purchased KINOMEscan
Text: as §1

panel of 442 kinases [35] = biological target: T35, panel of 442 kinases (Homo sapiens, UniProt Q9P286)
T35 construct: purchased KINOMEscan
Text: as §1

panel of 442 kinases [36] = biological target: T36, panel of 442 kinases (Homo sapiens, UniProt Q9UBF8)
T36 construct: purchased KINOMEscan
Text: as §1

panel of 442 kinases [37] = biological target: T37, panel of 442 kinases (Homo sapiens, UniProt Q9UEE5)
T37 construct: purchased KINOMEscan
Text: as §1

panel of 442 kinases [38] = biological target: T38, panel of 442 kinases (Homo sapiens, UniProt Q9UPZ9)
T38 construct: purchased KINOMEscan
Text: as §1

panel of 442 kinases [39] = biological target: T39, panel of 442 kinases (Homo sapiens, UniProt Q9UQ88)
T39 construct: purchased KINOMEscan
Text: as §1

panel of 442 kinases [40] = biological target: T40, panel of 442 kinases (Homo sapiens, UniProt Q9Y2K2)
T40 construct: purchased KINOMEscan
Text: as §1

panel of 442 kinases [41] = biological target: T41, panel of 442 kinases (Homo sapiens, UniProt Q9Y6M4)
T41 construct: purchased KINOMEscan
Text: as §1

panel of 442 kinases [42] = biological target: T42, panel of 442 kinases (Homo sapiens, UniProt Q9Y6R4)
T42 construct: purchased KINOMEscan
Text: as §1

## COc1cc(C(=O)N2CCC(N3CCN(C)CC3)CC2)ccc1Nc1ncc2c(n1)N1CCc3cccc(c31)C(=O)N2C [Compound 24]
Panel of 442 kinases [1]
  KINOMEscan: PIK3CD: 100
Panel of 442 kinases [2]
  KINOMEscan: p38-delta: 100
Panel of 442 kinases [3]
  KINOMEscan: JAK2(JH1domain-catalytic): 100
Panel of 442 kinases [4]
  KINOMEscan: RPS6KA5(Kin.Dom.1-N-terminal): 100
Panel of 442 kinases [5]
  KINOMEscan: CDKL5: 100
Panel of 442 kinases [6]
  KINOMEscan: PAK4: 85
Panel of 442 kinases [7]
  KINOMEscan: FES: 100
Panel of 442 kinases [8]
  KINOMEscan: RET: 100
Panel of 442 kinases [9]
  KINOMEscan: RET(V804M): 100
Panel of 442 kinases [10]
  KINOMEscan: KIT(A829P): 93
Panel of 442 kinases [11]
  KINOMEscan: CDK4-cyclinD1: 100
  KINOMEscan: CDK4-cyclinD3: 100
Panel of 442 kinases [12]
  KINOMEscan: AXL: 100
Panel of 442 kinases [13]
  KINOMEscan: ACVR1B: 88
Panel of 442 kinases [14]
  KINOMEscan: ACVRL1: 99
Panel of 442 kinases [15]
  KINOMEscan: PRKCI: 100
Panel of 442 kinases [16]
  KINOMEscan: PIK3CA: 70
Panel of 442 kinases [17]
  KINOMEscan: MEK4: 100
Panel of 442 kinases [18]
  KINOMEscan: RSK2(Kin.Dom.1-N-terminal): 100
Panel of 442 kinases [19]
  KINOMEscan: NEK3: 99
Panel of 442 kinases [20]
  KINOMEscan: PIP5K2B: 96
Panel of 442 kinases [21]
  KINOMEscan: PRKCQ: 100
Panel of 442 kinases [22]
  KINOMEscan: MAP4K2: 86
Panel of 442 kinases [23]
  KINOMEscan: AMPK-alpha1: 80
Panel of 442 kinases [24]
  KINOMEscan: MST2: 100
Panel of 442 kinases [25]
  KINOMEscan: PRKG1: 100
Panel of 442 kinases [26]
  KINOMEscan: IKK-epsilon: 100
Panel of 442 kinases [27]
  KINOMEscan: ERK3: 100
Panel of 442 kinases [28]
  KINOMEscan: MLCK: 100
Panel of 442 kinases [29]
  KINOMEscan: ANKK1: 100
Panel of 442 kinases [30]
  KINOMEscan: NEK11: 100
Panel of 442 kinases [31]
  KINOMEscan: NEK7: 100
Panel of 442 kinases [32]
  KINOMEscan: PFTAIRE2: 93
Panel of 442 kinases [33]
  KINOMEscan: DCAMKL3: 100
Panel of 442 kinases [34]
  KINOMEscan: IRAK4: 100
Panel of 442 kinases [35]
  KINOMEscan: PAK7: 100
Panel of 442 kinases [36]
  KINOMEscan: PIK4CB: 100
Panel of 442 kinases [37]
  KINOMEscan: DRAK1: 100
Panel of 442 kinases [38]
  KINOMEscan: ICK: 100
Panel of 442 kinases [39]
  KINOMEscan: CDC2L2: 100
Panel of 442 kinases [40]
  KINOMEscan: QSK: 100
Panel of 442 kinases [41]
  KINOMEscan: CSNK1G3: 86
Panel of 442 kinases [42]
  KINOMEscan: MAP3K4: 98
